In PubChem BioAssay AID504331 (Broad Institute, 2011) one finds activity change, negative = cytotoxicity data, which are given here for 1 compound.

Each structure is given as a SMILES string. The list shows a part of the results, in another mix than the full data. Activity calls are given as the source filed them.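 Rule for the calls: active = compounds that lower cell viability with a fitted AC50 at most ten times their top valid dose; inconclusive = flat fit showing 30 to 70 percent loss, or poor fit; inactive = the rest.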

This experiment in a line: U2OS reporter cell viability with added iron – iron-supplemented medium, dry powder, cytotoxicity control for HIF pathway activator project, dose response (AID 504331). Particulars: U2OS HRE-luc cells viability, CellTiter-Glo luminescence; at 38 µM (top of the series). The procedure, abridged:
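system = human U2OS osteosarcoma cells with 3xHRE-driven luciferase reporter | quantity = 6,000 cells per well | buffer or medium = phenol red-free DMEM, 10% FBS, 50 µM final ferric nitrate | dosing = 8 concentrations, 3-fold dilution steps | times = cells plated 24 h before dosing, 24 h compound exposure at 37 °C | technique = viability luminescence, CellTiter-Glo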
(In general: ATP-based viability assays read luminescence as a measure of living cells.)

For `O=c1[nH]c2ccccc2n1C1CCN(Cc2ccc(O)c3ncccc23)CC1`, the activity change, negative = cytotoxicity is inactive: -8.16%.
